# Measured values as given in ChEMBL document CHEMBL2203133 (J Med Chem, 2012).
# Biological target: T1, Serine/threonine-protein kinase Chk1 (Homo sapiens, UniProt O14757)
# T1 sequence (O14757 whole entry): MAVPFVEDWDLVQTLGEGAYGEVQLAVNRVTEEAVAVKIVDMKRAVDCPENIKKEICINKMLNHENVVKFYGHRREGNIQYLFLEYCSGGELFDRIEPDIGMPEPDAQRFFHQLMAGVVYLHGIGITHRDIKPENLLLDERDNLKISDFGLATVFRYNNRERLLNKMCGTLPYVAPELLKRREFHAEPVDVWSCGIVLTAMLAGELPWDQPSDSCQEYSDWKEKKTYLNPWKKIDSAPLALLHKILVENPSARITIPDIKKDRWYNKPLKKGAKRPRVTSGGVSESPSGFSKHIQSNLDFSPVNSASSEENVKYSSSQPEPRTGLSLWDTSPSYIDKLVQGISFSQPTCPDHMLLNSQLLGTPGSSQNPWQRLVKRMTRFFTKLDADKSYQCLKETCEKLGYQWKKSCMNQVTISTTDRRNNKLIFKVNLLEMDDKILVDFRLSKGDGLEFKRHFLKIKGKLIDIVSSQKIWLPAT
row,Compound,IC50 [nM]
1,CNc1cc(Nc2cnc(C#N)c(O[C@@H]3CCNC3)n2)ncc1-c1cnn(C)c1,< 1
2,CNc1cc(Nc2cnc(C#N)c(O[C@H]3CCNC3)n2)ncc1-c1cnn(C)c1,< 1
3,CNc1cc(Nc2cnc(C#N)c(O[C@@H]3CCNC3)n2)ncc1C(=O)OC,5.4
